Experimental data as given in patent US11464773B2, “Nutlin-3a for treatment of proliferative vitreoretinopathy” (The Schepens Eye Research Institute, Inc., priority 2012, dated 2022).

System: F cells
Assay: Collagen contraction assay, RV-induced, F cells
Assay type: cell-based, mouse
Conditions: Imatinib 10 μM, day 3
Protocol: FIGS. 10A-10B include a series of bar graphs showing that inhibiting PDGFRα kinase activity blocked RV-induced collagen contraction. The indicated RCFs (50,000 cells/ml) (FIG. 10A) or F cells (1 million cells/ml) (FIG. 10B) were subjected to a collagen contraction assays as described below. […] After the collagen was solidified (90 minutes), DMEM or RV (diluted 1:3 in DMEM) supplemented with Imatinib (10 μM) or its vehicle was added, and replenished every 24 hours; the experiments were terminated on day 3. The panels below the bar graphs show photographs of representative gels; the data presented are representative of 3 independent experiments. The data were subjected to a paired t test; “*” denoted a statistically significant difference.
RPEM cells are RPE cells derived from a human epiretinal membrane, as previously described (Wong C A et al., 2002 Can J Ophthalmol, 37:211-220). Primary rabbit conjunctival fibroblasts (RCFs) were obtained and cultured as described previously (Ikuno Y et al., 2002 Invest Ophthalmol Vis Sci, 43:2406-2411). […]
Cells were trypsinized, washed and resuspended in 1.5 mg/ml of neutralized collagen I (INAMED, Fremont, Calif.) (pH 7.2) at a density of 1×10^6 cells/ml for RPEM or 5×10^4 cells/ml for RCFs. […] The media were replaced every day, and the gel diameter was measured on day 3. The gel area was calculated using the formula πr2, where r is the radius of the gel.

SMILES: Cc1ccc(NC(=O)c2ccc(CN3CCN(C)CC3)cc2)cc1Nc1nccc(-c2cccnc2)n1 [Imatinib]
- RV-induced contraction in F cells (no PDGFR): unaffected
